{"source": "patent US20250161332A1", "about": "“NON-PSYCHOACTIVE MULTI-CANNABINOID AND POLYSACCHARIDE AND POLYSACCHAROPEPTIDE-BASED THERAPEUTIC COMPOSITIONS AND METHODS OF THEIR ADMINISTRATIO” (Pebble Global Holdings, priority 2021, published 2025)", "origin": "cited, not measured here", "test_system": "PBLs", "details": "IL-2 100 U/ml, PSK 100 μg/ml; cited from earlier work", "data": [{"substance": "IL-2: IL-2, used at 100 U/ml to stimulate lymphocytes", "values": [{"measurement": "proliferation rate", "result": 3, "unit": "fold"}]}]}
